{"sequences": {"note": "The chains behind the UniProt entries cited, without tags or fusion partners.", "UniProt P62937, whole entry, species assumed": "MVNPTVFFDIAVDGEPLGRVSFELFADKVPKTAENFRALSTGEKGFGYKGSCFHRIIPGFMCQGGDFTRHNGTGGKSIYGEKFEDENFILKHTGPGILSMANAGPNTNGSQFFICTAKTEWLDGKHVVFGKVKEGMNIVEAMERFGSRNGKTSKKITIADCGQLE"}, "source": "patent US8394763B2", "about": "“Cyclic undecapeptides and derivatives as multiple sclerosis therapies” (Oregon Health & Science University, priority 2007, dated 2013)", "origin": "cited, not measured here", "data": [{"molecular_target": "CypA (Homo sapiens, UniProt P62937)", "details": "see U.S. Pat. No. 6,927,208 and WO 2006/038088; cited from earlier work", "values": [{"substance": "[MeVal]^4-CsA", "apparent Ki for CypA activity compared with CsA": "less than the Ki of CsA"}, {"substance": "Cyclo[L-alanyl-D-alanyl-N-methyl-L-leucyl-N-methyl-L-leucyl-N-methyl-L-valyl-(2S,3R,4R,6E)-3-hydroxy-4-methyl-2-methylamino-6-octenoyl-(2S)-2-aminobutanoyl-N-methyl-D-alanyl-N-ethyl-L-valyl-L-valyl-N-methyl-L-leucyl] [[D-MeAla]^3-[EtVal]^4-CsA]", "apparent Ki for CypA activity compared with CsA": "less than the Ki of CsA"}, {"substance": "[MeIle]^4-CsA", "apparent Ki for CypA activity compared with CsA": "less than the Ki of CsA"}]}]}
